Measured affinities in a library of Ab-14 light chain variants

Source: Li et al. 2023 (doi:10.1038/s41467-023-39022-2), MIT Lincoln Laboratory and A-Alpha Bio; data file from the FLAb repository.

Binding partner: SARS-CoV-2 spike HR2 peptide, sequence PDVDLGDISGINAS.

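This is the validation round: designs drawn from the data on random variants, tested in the same kind of assay. Their group label is 14L_Ctrl (Ctrl: baseline library sampled from a position-specific scoring matrix, with some repeated check sequences). Affinity was read by AlphaSeq, a pooled yeast mating assay with surface-displayed partners. Binding brings cells together so that they mate, and sequencing counts the barcode pairs among the diploids. Scores were corrected for input abundance and mapped to Kd with protein pairs of known affinity run in the same pool. There are six technical replicates.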

Ab-14 is the parent antibody, in scFv form: VH, then the linker GGGGSGGGGSGGGGS, then VL. The heavy chain is unchanged in all variants.
VH: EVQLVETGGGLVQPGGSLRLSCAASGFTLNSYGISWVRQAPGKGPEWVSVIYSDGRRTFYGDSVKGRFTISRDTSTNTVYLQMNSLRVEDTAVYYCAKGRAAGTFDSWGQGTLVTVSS
VL: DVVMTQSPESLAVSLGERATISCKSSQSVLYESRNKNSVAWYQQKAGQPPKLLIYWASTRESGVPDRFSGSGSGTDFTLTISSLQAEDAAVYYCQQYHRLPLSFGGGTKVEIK

The parent's light chain CDRs are KSSQSVLYESRNKNSVA, WASTRES, QQYHRLPLS; each variant's own CDRs replace them letter for letter.
Values are log10 of the apparent Kd in nM; lower means stronger binding.
Averages over replicates are reported, and they cover detected replicates only.
"ND" means that the variant was in the library but no mating with the target was seen in that replicate; the authors take this as a sign of poor binding, and no number exists.
As a blank, each scFv also met three strains without target: over all light chain designs, 4% of these pairings were detected, typically at 2.64 and seldom below 1.59. For each scFv, signals with the empty controls are counted beside the result, with their mean in brackets.
In the paper, a design with two or fewer of six values counts as a poor binder.
The parent sequence was in this pool as ten entries: three were never detected, three once, and four in most replicates, with averages from 0.34 to 2.37.
Values of this round are not directly comparable with the first-round values of the same sequences.

CDR-L1,CDR-L2,CDR-L3,"replicates, log10 nM",mean log10 Kd (nM),signal with controls
KASQSVLYESRNKNSVA,WASTRES,QQYHRLPLE,ND 1.15 ND ND 2.79 ND,1.97,0/18
KFSQSVLYESRNKNSVA,WAQTRES,QQYHRMPLS,0.53 0.68 0.78 0.45 0.30 1.14,0.65,0/18
KSSHSVPYESRNKNSVA,TASTRES,QQYHRMPLS,1.19 ND 0.78 1.45 2.95 1.43,1.56,0/18
KSRQSVAYESENKNSVA,SASTRES,QQYHRLPLS,0.97 1.06 0.19 0.22 0.81 0.78,0.67,1/18 (2.45)
KSSQSPLYESRNKNSVA,WASTRES,QQVHRLPLS,ND ND ND ND ND ND,ND,1/18 (2.02)
WSSQSVLGESRNKNSVA,AASTREV,QQYHRLPLS,0.87 0.79 0.64 0.62 0.60 0.72,0.70,3/18 (2.85)
KSSQSVLYESWTKNSVA,DASTRES,QQYHRLPLS,0.87 0.99 0.87 0.94 0.75 0.77,0.86,0/18
KSSQSVLYESRNKNSVA,WASTRES,QFYHRLPTS,ND ND ND ND ND ND,ND,0/18
KSSQSVLYESRNKNSVA,WASTRES,QQYWRLYLS,ND ND ND ND -0.05 ND,-0.05,0/18
KSSQSVLDNSRNKNSVA,WASTREH,QQYHRLPLS,1.51 1.75 1.88 1.97 2.35 1.91,1.90,0/18
KSSQSVLYESRNKNSVA,WASTRES,QYYHRLPLS,ND ND 1.99 3.52 ND ND,2.76,0/18
KSSQSVLEESRNKNSVA,WASTRES,QQYHRLILS,ND ND ND ND ND ND,ND,0/18
KCSQQVQYESRNKNSVA,WAHTRES,QQYHCMPLS,ND ND ND ND ND ND,ND,0/18
SNSTSVLYESRNKNSVA,WASTRES,QQTHRLPLS,ND ND ND ND ND ND,ND,1/18 (1.96)
KSSQMVLYESRNKNSVA,WASTRES,QQYHRLMLS,ND ND ND ND ND ND,ND,0/18
KSSYSVLYESRNKNSVA,GASHRES,QNYHRLPLS,ND 1.68 1.63 2.52 2.44 2.22,2.10,0/18
KSSQNVEGMSPNKNSVA,WASTRES,QQGHCFPLS,ND ND ND ND ND ND,ND,0/18
KSSQSVLYESRNKNSVA,HASTRES,TQYHRLPLS,ND ND ND ND ND ND,ND,0/18
KSSQSVLYESRNKNSVA,EGSTRES,QQYHRLPLS,0.27 0.67 0.34 0.41 0.34 0.48,0.42,0/18
KSKQSTLYESRNKNSVA,WASTRES,DQYSRLPLS,ND ND ND ND ND ND,ND,0/18
KSSQSVLYESRFKNSVA,NASTRES,QQYHRLPLS,1.24 0.95 1.12 0.82 0.81 0.98,0.99,1/18 (2.97)
VSSQSVLGESRQKNSVA,QASTRES,QQYHRLPLS,0.72 0.60 0.68 0.70 1.06 1.15,0.82,1/18 (2.93)
KSRQSVLYESENKNSVA,KASTRES,QDYHRLPLS,0.22 0.88 0.52 0.40 0.63 0.43,0.51,0/18
KSSQSVLYESLNKNSVA,WASTRES,EQYHGLPWS,ND ND ND ND ND ND,ND,2/18 (1.56)
KSSQSVLYESRNKNGVA,WASTRES,QQYARLPLD,ND ND ND ND ND ND,ND,1/18 (0.53)
KSSQSVADESRNKNSIA,WANERES,QQYHHLPLS,0.92 1.21 1.21 1.16 1.17 1.22,1.15,1/18 (3.26)
KSSQSVLAESVNKNSVA,WASTRES,QQYHRLHLS,ND ND ND ND ND ND,ND,0/18
KSMQSVLYESENRNSVA,SASTRES,QQYHRDPLS,0.62 0.70 0.33 1.32 1.07 0.85,0.81,1/18 (2.78)
KSSQSVLYESRNANSVA,SASTRES,QQYHRFPLL,2.76 2.57 2.01 2.37 1.96 2.01,2.28,1/18 (2.85)
KSSQSVLYESEDKNSVA,WASTRES,QEYHRLPLS,ND 2.92 ND ND ND 2.23,2.58,0/18
KSTQSVLYESRNKNAVA,WASTRES,QQYHRLPLS,ND 2.15 ND ND ND 1.85,2.00,0/18
KDSQSMLYSSRNKNSVA,DASARES,QQYHRLPLW,0.63 0.45 0.41 0.65 0.48 0.52,0.52,0/18
RSSQSVTYESRNKNSVA,HASTRES,QQYHRLPLS,1.08 1.36 0.15 0.52 1.05 0.94,0.85,2/18 (1.83)
KSSASKLYESRDHNSVA,WASTRES,QQYHRLPLD,ND ND ND ND ND ND,ND,0/18
KSSQSVGYESTNKNSVA,QASTRES,QQYHRLPLS,0.30 0.05 0.08 -0.01 -0.11 0.46,0.13,2/18 (2.79)
KSSQSVLYEERNKNSVA,WASTRES,QQGFRLPLS,ND ND ND ND ND ND,ND,0/18
KMSQSVQYESPNKHSVA,WASTRAS,QLYHRLPLS,0.85 0.95 0.39 1.34 0.44 0.59,0.76,1/18 (2.72)
KHSQSVLYESRNWNSVA,GASTRES,QQYHRLPLS,-0.57 -0.19 -0.34 0.36 -0.02 -0.26,-0.17,0/18
KSQQSWLYESRNKNSVA,KGSTRES,QQYHRLPLS,0.84 1.00 1.00 0.56 0.60 1.09,0.85,2/18 (2.26)
KSSQSVYYESTNCNSVA,WASTRES,QRYHRLPLS,ND ND ND ND ND ND,ND,0/18
KSSQSVLYESRNFNSVA,WASTREY,QQYHRLPLS,1.82 1.70 ND 3.07 3.19 ND,2.44,0/18
KSSMSVMYESRNKNSVA,WASTRES,QQYHQLPLS,2.08 2.01 1.96 1.81 2.28 1.73,1.98,0/18
KSSQLVLYPSRNKNSVA,NASTRES,QQYHRLPLS,1.17 0.66 0.67 0.36 0.52 0.81,0.70,0/18
KSSQSVLYENQNKNSVA,GASTREY,QQKHRLPHS,1.86 1.45 1.01 1.51 1.35 1.97,1.52,0/18
KSSQSVLYESWNKNSVA,TASTRES,QQYHRLPLS,0.45 0.78 0.99 0.05 0.09 0.24,0.43,0/18
KDSQSVLYSSRNKNSVA,AASTRES,QQYHRLPLS,0.89 0.62 0.28 0.42 1.08 0.55,0.64,1/18 (2.48)
KSSQSGTYESRWKNSVA,QASTREE,QQYHRLPLS,0.49 0.33 0.17 0.71 0.37 0.17,0.37,0/18
KSSDSVLPETRNKNSVA,EASTRCS,QQYWRLPLS,0.74 0.43 0.71 0.53 0.64 0.83,0.65,0/18
KSSQSVLYESCNKNSVA,GASTRES,QQYCRLPLS,0.29 0.25 -0.26 -0.14 -0.31 0.16,0.00,0/18

Top 3 of the variants detected in all replicates, tightest first:

CDR-L1	CDR-L2	CDR-L3	replicates, log10 nM	mean log10 Kd (nM)	signal with controls
KHSQSVLYESRNWNSVA	GASTRES	QQYHRLPLS	-0.57 -0.19 -0.34 0.36 -0.02 -0.26	-0.17	0/18
KSSQSVLYESCNKNSVA	GASTRES	QQYCRLPLS	0.29 0.25 -0.26 -0.14 -0.31 0.16	0.00	0/18
KSSQSVGYESTNKNSVA	QASTRES	QQYHRLPLS	0.30 0.05 0.08 -0.01 -0.11 0.46	0.13	2/18 (2.79)